Tested on: HIV-1 (IIIB strain) infected primary CD4 T cells
Experiment: Measurement of caspase release in mock and HIV-1 (IIIB strain) infected CD4 cells
Assay type: cell-based, human
Settings: HIV-1IIIb vs mock infected, IncuCyte Caspase 3/7, FIG. 5

CC1(C)CCC(CN2CCN(c3ccc(C(=O)NS(=O)(=O)c4ccc(OCC5(F)CCOCC5)c([N+](=O)[O-])c4)c(Oc4cnc5[nH]ccc5c4)c3)CC2)=C(C23CC(C(F)F)(C2)C3)C1 [Example 36, 2-((1H-pyrrolo[2,3-b]pyridin-5-yl)oxy)-4-(4-((2-(3-(difluoromethyl)bicyclo[1.1.1]pentan-1-yl)-4,4-dimethylcyclohex-1-en-1-yl)methyl)piperazin-1-yl)-N-((4-((4-fluorotetrahydro-2H-pyran-4-yl)methoxy)-3-nitrophenyl)sulfonyl)benzamide]
selectivity in killing HIV vs. mock infected cells (Caspase 3/7 cell death): exhibit selectivity in killing HIV vs. mock infected cells
